Results taken from patent publication US20090170131A1, “Agents for Imaging Apoptosis” (priority 2006, published 2009).

Target: T1, caspase-3 (Homo sapiens, UniProt P42574)
T1 construct: In DLD1 colon carcinoma cells in vitro; endogenous in cells; host or cells: DLD1 colon carcinoma cells
T1 sequence (P42574 29-175 limits assumed): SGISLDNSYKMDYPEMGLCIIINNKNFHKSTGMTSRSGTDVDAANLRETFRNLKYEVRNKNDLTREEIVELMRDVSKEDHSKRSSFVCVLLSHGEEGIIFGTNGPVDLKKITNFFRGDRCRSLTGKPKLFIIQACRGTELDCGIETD
T1 sequence (P42574 176-277 limits assumed): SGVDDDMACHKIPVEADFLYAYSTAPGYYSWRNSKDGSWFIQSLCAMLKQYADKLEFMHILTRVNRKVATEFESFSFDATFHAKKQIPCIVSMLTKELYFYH
Experiment: AMC-M808 cleavage in DLD1 colon carcinoma cells after TRAIL treatment, time-lapse confocal fluorescence
Assay type: cell-based
Details: DLD1 cells preincubated with 50 μM inhibitor for 1 hour before TRAIL
Method: FIG. 1 is an image of AMC fluorescence from an imaging agent in DLD1 colon carcinoma cells before (A) and after 2 hour treatment with TNF-related apoptosis-inducing ligand (TRAIL) (B).
The increase in fluorescence due to AMC-M808 cleavage during the first hour following TRAIL treatment was determined to proceed at rate of 5.5 min^−1.
DLD1 cells were seeded in an 8-chamber glass slide at a density of 2×10^4 cells/cm^2 in DMEM containing 10% FBS and allowed to attach overnight. Fluorescent images of the plated cells were acquired using an Olympus FV1000 confocal microscope equipped with an onstage incubation chamber. TRAIL was added to the cells in a 0.5 mL volume of fresh medium at a concentration of 50 ng/mL. Time-lapse microscopy was then immediately initiated with confocal images acquired at a rate of one image every 10 minutes. The cells were maintained at 37° C. in 5% CO2 for the duration of the experiment. […] Fluorescence intensity over time was measured in a representative region-of-interest in each 10-minute image acquired to determine the rate of caspase activity. […] The rate of cleavage following TRAIL addition was fast and fluorescence intensity in the apoptotic cell population increased over time at a rate of 5.5 min^−1 indicating accumulation and retention of the cleaved substrate (FIG. 2).

- increase in fluorescence intensity of AMC-M808 in the presence of the inhibitor: no net increase
Substance: DEVD-CHO [reference compound]
